An excerpt weighted towards active compounds, which were near 2.2% of everything screened.
miR-21 reporter = miR-21 reporter, rising signal | HeLa miR-21 FLuc reporter, luciferase, 48 h | Potency, µM (highest dose often 38.3 µM), for inactives: at the top dose reporter change, positive = more light | 340,000 tested, under 10 active | AID 2288; active = well fitted rising curve with a large enough effect; inconclusive = small, poorly fitted or top-dose-only effect; inactive = no such curve, though single readings can be large or run the other way;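 further: % of control where 0% means no effect; miR-21 action dims this reporter so a rising signal means less miR-21 action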
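Luminescence from a firefly luciferase reporter carrying a miR-21 binding site downstream, stably expressed under a CMV promoter in HeLa cells that make miR-21 endogenously, reports miRNA modulation after 48 h compound exposure up to approximately 40uM final.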
Nrf2 activator = Nrf2 pathway activation; AREc32 ARE-luciferase reporter (MCF7-derived line), luminescence, 24 h; Potency, µM (series often up to 46.1 µM), for inactives: top-dose activation, usual class: activators; actives 0.31% (n = 410,000); AID 624171; further: potency means the concentration at half of the fitted maximal effect; % of control where 0% means no effect; nearly all actives have a fitted effect of over 65% in size
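Luciferase luminescence (Steady-Glo, 30 min at room temperature) served as the read-out of ARE activation in AREc32 cells treated with compounds for 24 hr at 37 deg C.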
Nrf2 block = Nrf2 pathway inhibition | A549 ARE-Fluc reporter, luciferase luminescence, 18-24 h | Potency, µM (series often up to 46 µM), inactives show top-dose activity change, negative = inhibition, actives largely listed as inhibitors | actives 2.1% (n = 360,000); further: potency means the concentration at half of the fitted maximal effect; on the % scale 0 is the no-effect control and ±100 the full control effect; nearly all actives have a fitted effect of over 60% in size
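Nrf2 function is reported as luminescence of an ARE-controlled luciferase in A549 cells. Compounds were tested at several concentrations, and a CellTiter-Fluor read on the same wells flagged cytotoxicity.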
B2AR arrestin = agonists driving beta-arrestin recruitment to human beta2-adrenergic receptor; P07550; beta-arrestin recruitment to beta2AR, cell-based reporter; Potency, µM (doses to about 46.1 µM), for the others: at the highest dose activation, hits mostly activators; actives 0.02% (n = 330,000); AID 492947;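 further: potency means the concentration at half of the fitted maximal effect; 0% = DMSO controls and full agonism = EC100 isoproterenol or metaproterenol; nearly all actives have a fitted effect of over 65% in size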
A549 tox = A549 cytotoxicity, counter-screen for Nrf2 inhibitors. A549 ARE-Fluc cells, CellTiter-Fluor viability, 18-24 h. Potency, µM (highest dose often 46 µM), for inactives: at the top dose activity change, negative = cytotoxicity, usual class: inhibitors. actives 0.16% (n = 390,000). AID 504648; further: potency means the concentration at half of the fitted maximal effect; on the % scale 0 is the no-effect control and ±100 the full control effect
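A549 ARE-Fluc cells in 5% FBS OPTI-MEM, 5000 cells/well, rested 2 h then exposed to compounds in concentration-response for 18-24 h at 37 °C. Viability by CellTiter-Fluor fluorescence (Ex 405/Em 525) after 30 min; luciferase luminescence (BugLite, 15 min, RT) read afterwards.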
The depositor's hits bear a star; i = inactive; u = inconclusive; x = no result; ! = a repeat was not active. Unless noted, the call rests on the fitted dose curve; in most records, active means well fitted curve in the direction sought with a large enough effect; inconclusive means small, poorly fitted or top-dose-only effect, or another doubt; inactive means no such curve, though single readings can be large; an effect the other way counts as inactive or inconclusive.

SMILES	miR-21 reporter	Nrf2 activator	Nrf2 block	B2AR arrestin	A549 tox
O=C1Nc2ccccc2Oc2cc(Oc3ccc(Cl)cc3)ccc21	0%	1%	x	x	6%
Cc1ccc(Oc2cc([N+](=O)[O-])cc3c2C(=O)Nc2ccccc2O3)cc1	0%	10%	15µM*	0%	-8%
COc1cccc(Cn2cnc3c2c(=O)n(C)c(=O)n3C)c1	12%	-1%	13µM*	x	-1%
CCCCC(=O)Nc1ccc(C(=O)Nc2ccc(OC)cc2[N+](=O)[O-])cc1	1%	-1%	21µM*	0%	u
CCCCC(=O)Nc1ccc(NC(=O)c2ccc([N+](=O)[O-])cc2)cc1OC	-13%	0%	-14%	0%	0%
Cc1cc2c(s1)c1cnn(Cc3cccc(F)c3)c(=O)c1n2C	x	x	-12%	x	1%
CCc1nc2oc3ccccc3c(=O)c2c(=O)n1-c1ccc(C)cc1	-68%	u	i	7%	-6%
CCCc1nc2oc3ccccc3c(=O)c2c(=O)n1-c1ccc(C)cc1	-52%	11µM*	u	4%	0%
O=C(NCCc1ccccc1Cl)c1cc2ccccn2n1	-39%	3%	u	x	-5%
Cn1c(=O)c2sccc2n(Cc2cccc(Br)c2)c1=O	3%	0%	10µM*	0%	-1%
CC(O)CNc1nc2c(c(=O)n(C)c(=O)n2C)n1C/C=C/c1ccccc1 (stereo unspecified)	14%	0%	23µM*	-1%	-6%
COCCNc1nc2c(c(=O)n(C)c(=O)n2C)n1Cc1cccc(C(F)(F)F)c1	9%	1%	16µM*	0%	-20%

Molecules shown so far containing four or more nitrogen atoms:
SMILES	miR-21 reporter	Nrf2 activator	Nrf2 block	B2AR arrestin	A549 tox
COc1cccc(Cn2cnc3c2c(=O)n(C)c(=O)n3C)c1	12%	-1%	13µM*	x	-1%
CC(O)CNc1nc2c(c(=O)n(C)c(=O)n2C)n1C/C=C/c1ccccc1 (stereo unspecified)	14%	0%	23µM*	-1%	-6%
COCCNc1nc2c(c(=O)n(C)c(=O)n2C)n1Cc1cccc(C(F)(F)F)c1	9%	1%	16µM*	0%	-20%

(continued)
SMILES	miR-21 reporter	Nrf2 activator	Nrf2 block	B2AR arrestin	A549 tox
CC(O)CNc1nc2c(c(=O)n(C)c(=O)n2C)n1Cc1cccc(Br)c1 (stereo unspecified)	8%	1%	16µM*	-1%	-13%
COc1ccc(C2Nc3ccccc3-n3c(-c4ccccc4)c4c(=O)n(C)c(=O)n(C)c4c32)cc1 (stereo unspecified)	13%	0%	u	x	u
CC(C)(C)c1ccc(-c2nnc(SCCC#N)n2C2CCCC2)cc1	11%	2%	21µM*	0%	u
Cn1c(SCCC#N)nnc1-c1ccc(F)cc1	-6%	x	x	0%	x
COc1ccc(Cl)cc1NC(=O)c1sc2nc(C)nc(N3CCOCC3)c2c1C	-1%	0%	21µM*	0%	-19%
Cc1nc(N2CCC(C)CC2)c2c(C)c(C(=O)Nc3cccc(C(F)(F)F)c3)sc2n1	-2%	0%	u	0%	u
Cc1nc(N2CCN(c3ccccn3)CC2)c2c(C)c(C(=O)Nc3ccc(F)cc3F)sc2n1	2%	1%	u	1%	2%
COc1ccc(NC(=O)c2sc3ncnc(N4CCN(c5ccccn5)CC4)c3c2C)cc1Cl	26%	0%	15µM*	0%	u
Cc1nc(N2CCC(C)CC2)c2c(C)c(C(=O)Nc3ccc(C(F)(F)F)cc3)sc2n1	-6%	0%	21µM*	0%	u
Cc1nc(N2CCN(c3ccccn3)CC2)c2c(C)c(C(=O)Nc3ccccc3F)sc2n1	-1%	0%	16µM*	0%	-16%
COCCNc1cc(N2CCN(C3CCCCC3)CC2)c2noc3c2c1C(=O)c1ccccc1-3	5%	0%	3%	x	1%
COc1ccc(C(F)(F)F)cc1NC(=O)C(OC(=O)CNC(=O)c1ccccc1)c1ccccc1 (stereo unspecified)	x	x	12%	x	7%
Cc1ccc(NC(=O)C2CCCN(S(=O)(=O)c3c(C)nn(C)c3C)C2)c(C)c1 (stereo unspecified)	-4%	-1%	8%	x	-3%
COc1ccc(/C=C/C(=O)Nc2cccc(S(=O)(=O)N3CCOCC3)c2)cc1OC	x	5%	u	-1%	3%
CN(CC(=O)Nc1cccc(S(=O)(=O)N2CCOCC2)c1)CC(=O)Nc1ccc(Cl)c(C(F)(F)F)c1	x	3%	21µM*	0%	u
CN(C)S(=O)(=O)c1cccc(NC(=O)/C=C/c2ccc(S(=O)(=O)N3CCOCC3)cc2)c1	x	1%	23µM*	0%	-4%
O=C(/C=C/c1ccco1)Nc1cccc(S(=O)(=O)N2CCOCC2)c1	-15%	5.6µM*	1%	0%	4%
COc1cc(/C=C/C(=O)Nc2cccc(S(=O)(=O)N3CCOCC3)c2)ccc1OCC#N	x	0%	15µM*	0%	-9%
Cc1ccc(S(=O)(=O)N2CCN(c3nc(-c4ncccn4)nc4ccccc34)CC2)cc1	x	x	-3%	x	2%
CC(=O)c1cccc(NC(=O)c2noc3c2CCCC3)c1	-47%	5%	u	x	0%
COc1cc(/C=C/C(=O)c2ccc(O)cc2)ccc1OCC#N	u	u	26µM*	-2%	u
CCN(CC)CCC(c1cc(OC)c(OC)c(OC)c1)c1c(OC)cc(OC)c2ccc(=O)oc12 (stereo unspecified)	-1%	10%	10%	0%	15µM*!
CCN(CC)CCC(c1ccc2c(c1)OCO2)c1c(OC)cc(OC)c2ccc(=O)oc12 (stereo unspecified)	-4%	11%	7%	0%	16µM*
CCOCc1cc(CN2CCN(c3cccc(C(F)(F)F)c3)CC2)c(O)c2ncccc12	15%	0%	u	x	-2%

With a hit mark in Nrf2 activator, among the entries above:
SMILES,miR-21 reporter,Nrf2 activator,B2AR arrestin
CCCc1nc2oc3ccccc3c(=O)c2c(=O)n1-c1ccc(C)cc1,-52%,11µM*,4%
O=C(/C=C/c1ccco1)Nc1cccc(S(=O)(=O)N2CCOCC2)c1,-15%,5.6µM*,0%

(list continues)
SMILES	miR-21 reporter	Nrf2 activator	Nrf2 block	B2AR arrestin	A549 tox
CC(C)OCc1cc(CN2CCN(c3cccc(C(F)(F)F)c3)CC2)c(O)c2ncccc12	u	1%	16µM*	x	-25%
Cc1ccc(S(=O)(=O)Nc2cc(Cl)c(O)c3ncccc23)cc1	20%	6%	21µM*	5%	-23%
O=C(CNC(=O)c1ccc2n[nH]nc2c1)OC(C(=O)Nc1cc(C(F)(F)F)ccc1Cl)c1ccccc1 (stereo unspecified)	x	x	-20%	x	3%
CN(C)/C(CN1CCN(C=O)CC1)=C1\N=C(c2ccccc2)OC1=O	0%	-1%	23µM*	-1%	2%
Oc1ccc(NCc2ccccc2OCc2ccc(Cl)cc2)cc1	16%	11%	7%	x	11%
Oc1ccc(NCc2ccccc2OCc2ccccc2)cc1	u	4%	0%	7.3µM*	-13%
Cc1ccccc1S(=O)(=O)N1CCN(c2nc(-c3cccs3)nc3ccccc23)CC1	x	x	-13%	x	7%
CCOC(=O)C(=Cc1ccc(-n2cncn2)cc1)C(=O)OCC	u	u	18µM*	0%	u
COc1cc(C2NC(=O)N(C)C3=C2C(=O)N(c2ccccc2)C3)ccc1O (stereo unspecified)	-12%	-1%	-3%	x	-1%
COc1ccc(OC)c(CNc2ncnc3onc(-c4ccc(Cl)cc4)c23)c1	22%	0%	-4%	x	13%
Clc1ccc(-c2csc(N/N=C/c3ccco3)n2)cc1	-47%	8.9µM*	u	-1%	u
Cc1ccc(-c2csc(N/N=C/c3ccco3)n2)cc1	-44%	u	25%	0%	-7%
